Experimental data reported in patent US5624932A (priority 1995, dated 1997).

Legend:
[1] = test system: dorsal root ganglion (DRG) neurons; settings: for Alteration of action potential duration, opioid at low concentration: < nM; for Alteration of action potential duration, opioid at high concentration: μM
[2] = test system: chronic opioid-treated DRG neurons; settings: for effect on APD of chronic DADLE-treated DRG neuron: 1 μM DADLE present
[3] = listed as dynorphin (amino acids 1-13)
[4] = listed as dynorphin (amino acids 1-17)

| Compound | Alteration of action potential duration, opioid at low concentration [1] | Alteration of action potential duration, opioid at high concentration [1] | Alteration of action potential duration, opioid at low concentration [1, 3] | dose-response effect on the APD of naive DRG neurons ([1]; fM-μM, FIG. 1, FIG. 2) | concentration required to shorten the APD ([1]; naive, n=35) | concentration that prolongs the APD of naive DRG neurons ([1]; naive, listed as Dyn (1-13)) | concentration that prolongs the APD of naive DRG neurons ([1]; naive, listed as Dyn (amino acid 1-13)) | Alteration of action potential duration, opioid at high concentration [1, 3] | effect on APD of chronic DADLE-treated DRG neuron ([2]; 1 fM) | concentration effective at prolonging the APD after chronic opioid treatment ([2]; chronic opioid-treated) | effect on APD of chronic DADLE-treated DRG neuron ([2]; raised to 1 nM and 1 μM) | Alteration of action potential duration, opioid at low concentration [1, 4] | Alteration of action potential duration, opioid at high concentration [1, 4] |
| --- | --- | --- | --- | --- | --- | --- | --- | --- | --- | --- | --- | --- | --- |
| CSCC[C@H](NC(=O)[C@H](Cc1ccccc1)NC(=O)CNC(=O)CNC(=O)[C@@H](N)Cc1ccc(O)cc1)C(=O)O | Prolongation | Shortening |  |  |  |  |  |  |  |  |  |  |  |
| 3-endorphin | Prolongation | Shortening |  |  |  |  |  |  |  |  |  |  |  |
| Tyr--Gly--Gly--Phe--Leu--Arg--Arg--Ile--Arg--Pro--Lys--Leu--Lys | Prolongation | Shortening | excitatory APD-prolonging | dose-dependent prolongation of the APD | ca. μM | fM-nM | pM-nM | inhibitory APD-shortening | prolonged | fM | further prolonged |  |  |
| Tyr--Gly--Gly--Phe--Leu--Arg--Arg--Ile--Arg--Pro--Lys--Leu--Lys--Trp--Asp--Asn--Gln | Prolongation | Shortening |  |  |  |  |  |  |  |  |  | excitatory APD-prolonging | inhibitory APD-shortening |

Read-outs that look alike come from different tables or passages of the source.
